Laboratory results: article PMC9728921, “Characterization of a KDM5 small molecule inhibitor with antiviral activity against hepatitis B virus” (PLOS ONE, 2022)

Legend:
H3K4me3:H3 [1] = assay: Global H3K4me3:H3 ratio by ELISA in HBV-infected PHH; type: cell-based, human
Protocol: For the continuous dose experiment, cells received one dose of GS-5801 on days 0, 3, 6, and 10 and medium was not replenished until the next dose day. For the pulse dose regimen, medium containing compound was removed after two hours incubation and replaced with fresh maintenance medium every three to four days. Cells in the pulse dose experiment received only one dose of compound (Day = 0). Histones were enriched from tissue and PBMC samples using the AbCam total histone extraction kit (Cambridge, UK; ab113476) according to the manufacturer’s protocol after cell/tissue dissociation with an IKA T10 TURRAX homogenizer (Wilmington, NC; […] Histones were enriched from 500,000 to 750,000 PHH. PHH monolayers were washed once with cold (4°C) 1X DPBS (Dulbecco’s phosphate buffered saline; 21-031-CV, Corning Inc.). Cold triton extraction buffer (TEB): 1X DPBS, 0.5% triton X-100 (Sigma-Aldrich, T9284), 2 mM phenylmethylsulfonyl fluoride (PMSF; Thermo Fisher Scientific, 36978), was added to the cell monolayer at a density of 1 x 10^6 cells/mL. After 10-minute incubation in TEB at 4°C, the cell monolayer was scraped and cells were pelleted by centrifuged at 1200 rpm at 4°C for 10 minutes. The cell pellets were washed again in TEB by centrifugation at 1200 rpm at 4°C for 10 minutes. The resulting cell pellet was re-suspended in cold (4°C) 0.2 Normal hydrochloric acid (HCl; Sigma-Aldrich, 343102) at a density of ~ 1 x 10^7 cells/mL and incubated at 4°C for 30 minutes. After incubation, HCl extractions were pelleted by centrifugation at 1200 rpm for 5 minutes at 4°C and supernatant containing the enriched histones was collected. Total protein concentration of all samples following histone enrichment was determined using a bicinchoninic acid (BCA) assay (Thermo Fisher Scientific; 23225). […] Absorbance of each well was measured at 450 nm within five minutes using a SpectraMax Plus 384 Microplate Reader (Molecular Devices; PLUS 384).

H3K4me3:H3 [2] = assay: Tissue PD (H3K4me3:H3 by ELISA), cynomolgus monkey; type: in vivo; conditions: monkeys; p.o. once daily for seven days; 24 hours after last dose
Protocol: Histones were enriched from tissue and PBMC samples using the AbCam total histone extraction kit (Cambridge, UK; ab113476) according to the manufacturer’s protocol after cell/tissue dissociation with an IKA T10 TURRAX homogenizer (Wilmington, NC; EW-04720-50). Histones were enriched from 500,000 to 750,000 PHH. PHH monolayers were washed once with cold (4°C) 1X DPBS (Dulbecco’s phosphate buffered saline; 21-031-CV, Corning Inc.). Cold triton extraction buffer (TEB): 1X DPBS, 0.5% triton X-100 (Sigma-Aldrich, T9284), 2 mM phenylmethylsulfonyl fluoride (PMSF; Thermo Fisher Scientific, 36978), was added to the cell monolayer at a density of 1 x 10^6 cells/mL. After 10-minute incubation in TEB at 4°C, the cell monolayer was scraped and cells were pelleted by centrifuged at 1200 rpm at 4°C for 10 minutes. The cell pellets were washed again in TEB by centrifugation at 1200 rpm at 4°C for 10 minutes. […]
An indirect ELISA assay was used to measure amounts of H3K4me3 relative to total H3 (H3K4me3:H3) extracted from tissue, PBMC, or PHH samples. Amounts of H3, H3K4me3, and non-specific background from the secondary antibody (blank absorbance) were measured for each sample in independent ELISA wells. […] Absorbance of each well was measured at 450 nm within five minutes using a SpectraMax Plus 384 Microplate Reader (Molecular Devices; PLUS 384).

H3K4me3:H3 [3] = assay: Tissue PD (H3K4me3:H3 by ELISA), rat; type: in vivo
Protocol: Male Wistar Han rats (n = 3 per dose group) were dosed p.o. once daily for seven days with GS-5801 at 10, 30, or 100 mg/kg and sacrificed 24 hours after the last dose. A second group of male Wistar Han rats (n = 3 per dose group) were dosed p.o. once daily for seven days with GS-5801 at 10, 30, or 100 mg/kg and taken off drug for seven days before animals were sacrificed.
Histones were enriched from tissue and PBMC samples using the AbCam total histone extraction kit (Cambridge, UK; ab113476) according to the manufacturer’s protocol after cell/tissue dissociation with an IKA T10 TURRAX homogenizer (Wilmington, NC; EW-04720-50). Histones were enriched from 500,000 to 750,000 PHH. PHH monolayers were washed once with cold (4°C) 1X DPBS (Dulbecco’s phosphate buffered saline; 21-031-CV, Corning Inc.). Cold triton extraction buffer (TEB): 1X DPBS, 0.5% triton X-100 (Sigma-Aldrich, T9284), 2 mM phenylmethylsulfonyl fluoride (PMSF; Thermo Fisher Scientific, 36978), was added to the cell monolayer at a density of 1 x 10^6 cells/mL. After 10-minute incubation in TEB at 4°C, the cell monolayer was scraped and cells were pelleted by centrifuged at 1200 rpm at 4°C for 10 minutes. The cell pellets were washed again in TEB by centrifugation at 1200 rpm at 4°C for 10 minutes. The resulting cell pellet was re-suspended in cold (4°C) 0.2 Normal hydrochloric acid (HCl; Sigma-Aldrich, 343102) at a density of ~ 1 x 10^7 cells/mL and incubated at 4°C for 30 minutes. After incubation, HCl extractions were pelleted by centrifugation at 1200 rpm for 5 minutes at 4°C and supernatant containing the enriched histones was collected.
An indirect ELISA assay was used to measure amounts of H3K4me3 relative to total H3 (H3K4me3:H3) extracted from tissue, PBMC, or PHH samples. Amounts of H3, H3K4me3, and non-specific background from the secondary antibody (blank absorbance) were measured for each sample in independent ELISA wells. Briefly, each histone extraction from tissue or PBMC lysates was diluted in 50 mM Na2CO3 (Sigma-Aldrich; 223484), pH 9.5 coating buffer and 50 μl of each diluted sample was added to 384-well plates (Greiner, Kremsmünster, Austria; 781061) in duplicate. A coating concentration for tissue and PBMC histone extracts was used such that the H3 and H3K4me3 OD measurements were in the linear range for the H3 and H3K4me3 antibodies. After plates were incubated overnight at 4°C to allow for coating of histone samples, plates were blocked for one hour at room temperature (RT) in 100 μl 5% skimmed milk (Fluka; 70166)/1X DPBS (Gibco; 70011–044) % w/v solution. Plates were washed three times with 0.1% Tween-20 (Amresco; 0777)/1 X DPBS % v/v solution (DPBST) and 50 μl/well of 0.05 μg/ml H3 (Sino Biological; 11231-RP02) or 0.5 μg/ml H3K4me3 (Millipore; 07473) primary antibodies diluted in 1X DPBS were added to the ELISA plates and incubated for one hour at RT. After primary antibody incubation, plates were washed 3 times with 100 μl/well PBST and 50 μl/well of an AbCam secondary antibody (ab137914) diluted to 0.05 μg/ml in 1X PBS was added to the ELISA plates and incubated for one hour at RT. Plates were washed five times with 100 μl/well DPBST and 50 μl/well 3,3′,5,5′-tetramethylbenzidine (TMB) substrate solution (Sigma; T0440) was added to each plate. […] Absorbance of each well was measured at 450 nm within five minutes using a SpectraMax Plus 384 Microplate Reader (Molecular Devices; PLUS 384).

H3K4me3:H3 [4] = assay: Liver H3K4me3:H3 by ELISA in HBV-infected humanized mice; type: in vivo, uPA-SCID mice with humanized livers; conditions: Day 56
Protocol: The in vivo and in vitro hepatocyte infection model portions of the study were performed by PhoenixBio (Higashi-Hiroshima, Japan). […] Mice were infected with HBV GTC virus (PhoenixBio; PBB004, Lot #160205) and had serum HBV titer levels greater than 1.0E+08 copies/mL seven days prior to study initiation. HBV-infected mice were treated once daily (p.o.) for seven days (Day 0–6) with deionized water for acclimation. Mice (n = 8 per treatment group) received vehicle (deionized water), 30 mg/kg, or 100 mg/kg of GS-5801 p.o. once daily on Days 7 to 13, Days 21 to 27, Days 35 to 41, and Days 49 to 55. Fifty μL of blood was collected from animals under isoflurane anesthesia via the retro-orbital plexus/sinus and centrifuged for serum collection for HBsAg and HBV DNA measurements described below. At termination of study (Day 56), 100–200 mg of tissue was harvested from the left lateral liver lobe of all animals. […]
An indirect ELISA assay was used to measure amounts of H3K4me3 relative to total H3 (H3K4me3:H3) extracted from tissue, PBMC, or PHH samples. Amounts of H3, H3K4me3, and non-specific background from the secondary antibody (blank absorbance) were measured for each sample in independent ELISA wells. […]

HBV GTC = assay: GS-5801 antiviral activity in PXB hepatocytes in vitro; type: cell-based, Hepatitis B virus; conditions: GTC HBV-infected hepatocytes; treated every 3–4 days; Day 21
Protocol: Hepatocytes were isolated by two-step collagenase perfusion from PXB mice as described. Hepatocytes were resuspended in DMEM medium (Thermo Fisher Scientific) containing 2% FBS (Biosera, Kansas City, MO), 20 mM HEPES (Thermo Fisher Scientific), 44 mN NaHCO3 (Wako Chemicals, Richmond, VA), 100 IU/mL penicillin (Thermo Fisher Scientific), and 100 ug/mL streptomycin (Thermo Fisher Scientific) and plated at a density of 4 x 10^5 cells/well of a BioCoat Collagen I 24 well plate (Corning). […] Medium containing fresh compound was replaced every 3 days for a total of six doses of compound and levels of extracellular HBsAg and HBeAg were measured on Day 21.
Quantification of HBsAg and HBeAg levels was performed by SRL Inc. (Tokyo, Japan) based on the Chemiluminescent immunoassay (CLIA) using an […] instrument and the […] […]

`CCOC(=O)c1ccnc(CNCC(=O)N(CC)CCN(C)C)c1` [GS-5801] was tested, and the “H3K4me3:H3 fold increase compared to vehicle treated PHH” value (H3K4me3:H3 [1]; continuous dosing 10 μM, apparent saturation six days after initiation of dosing) was 4.8 fold, the “H3K4me3:H3 ratio associated with near 100% HBeAg inhibition on day 12” value (H3K4me3:H3 [1]; short pulse treatment, 0.016–10 μM) was ~ 3 and the “H3K4me3:H3 fold increase” value (H3K4me3:H3 [1]; single two-hour pulse dose 10 μM, day three) was 2.8 fold. For the same compound, the “H3K4me3:H3 ratio in liver versus lung, kidney, PBMCs” value (H3K4me3:H3 [2]) was “increased levels of the H3K4me3:H3 ratio in the liver compared to lung, kidney, or PBMCs at most doses tested”, the “liver H3K4me3:H3 fold increase” value (H3K4me3:H3 [3]; Sprague Dawley rats, 10 or 30 mg/kg once daily for five days) was 4.2- to 4.3 fold and the “liver H3K4me3:H3 fold increase compared to vehicle-treated animals” value (H3K4me3:H3 [3]; Wistar Han rats, 10, 30, or 100 mg/kg p.o. once daily for seven days (dosing phase)) was 4.6- to 5.2 fold. For the same compound, the “liver H3K4me3:H3 fold increase compared to vehicle treated animals” value (H3K4me3:H3 [3]; rats, 100 mg/kg dose group, seven days off treatment (recovery phase)) was 2.7 fold, the “liver H3K4me3:H3, fold of vehicle animals” value (H3K4me3:H3 [3]; rats, 10 and 30 mg/kg dose groups, seven days off treatment (recovery phase)) was at most 1.6 fold and the “H3K4me3:H3 ratio in liver versus lung, kidney, PBMCs” value (H3K4me3:H3 [3]; rats, p.o. once daily for five days, 24 hours after last dose) was “increased levels of the H3K4me3:H3 ratio in the liver compared to lung, kidney, or PBMCs at most doses tested”. For the same compound, the “liver H3K4me3:H3 fold increase compared to vehicle-treated animals” value (H3K4me3:H3 [4]; 30 mg/kg) was 2.9 fold, the “liver H3K4me3:H3 fold increase compared to vehicle-treated animals” value (H3K4me3:H3 [4]; 100 mg/kg) was 3.3 fold and the “HBsAg and HBeAg levels” value (HBV GTC) was “reduction of HBsAg and HBeAg levels”.
